From patent publication US8829242B2, “Amide derivatives of valproic acid and uses thereof” (dated 2014)

How the values were obtained:
tactile allodynia [1] = settings: cited from earlier work; for potency as anti-neuropathic pain compounds compared to VPA: relative to VPA
seizures = settings: relative to VPA; cited from earlier work
soman-induced seizures = assay: Soman-induced seizure rat protocol (EEG)
[2] = system: pilocarpine-induced status; assay: Pilocarpine-induced status epilepticus test; settings: for Deaths: pilocarpine test
[3] = system: electrographic status epilepticus; assay: Benzodiazepine-resistant electrographic status epilepticus (ESE) rat model; settings: 130 mg/kg
tactile allodynia [4] = assay: Spinal nerve ligation (SNL, Chung) model of neuropathic pain, tactile allodynia; settings: rat, i.p., ED50 with 95% confidence interval
[5] = rats, given 0.5 h (30 min) after pilocarpine status

Structure (SMILES): CCCC(CCC)C(N)=O
- potency as anti-neuropathic pain compounds compared to VPA (tactile allodynia [1]): 4 times
- potency as anticonvulsants compared to VPA (seizures): 10 times

Structure (SMILES): NCC1(CC(=O)O)CCCCC1
- ED50, neuropathic pain (SNL) (tactile allodynia [1]; reference drug): 32 mg/kg

Structure (SMILES): CCC(C)C(CC)C(N)=O (centres unmarked)
- potency as anti-neuropathic pain compounds compared to VPA (tactile allodynia [1]): 4 times
- potency as anticonvulsants compared to VPA (seizures): 10 times

Structure (SMILES): CC(C)C(C(N)=O)C(C)C
- potency as anti-neuropathic pain compounds compared to VPA (tactile allodynia [1]): 4 times
- potency as anticonvulsants compared to VPA (seizures): 10 times

Structure (SMILES): CCCC(C(N)=O)C(C)C (centres unmarked)
- potency as anti-neuropathic pain compounds compared to VPA (tactile allodynia [1]): 4 times
- potency as anticonvulsants compared to VPA (seizures): 10 times

Structure (SMILES): CCCC(C(N)=O)C(C)CC (racemic)
- next day (seizure, per animal) (soman-induced seizures; 145 mg/kg IP, 40 min after seizure onset, second dose 145 mg/kg at end of day if seizure terminated, individual animals): seizing
- protection against soman-induced seizures (soman-induced seizures; 100-174 mg/kg, administered 20 min and 40 min post-seizure onset, for 4-8 hr after nerve gas): protected against soman-induced seizures
- anticonvulsant activity in rat pilocarpine-induced status model ([2]; rat): potent anticonvulsant activity
- ED50 mg/kg (95% CI), Pilocarpine Test [2, 5]: 84 mg/kg
- ED97 mg/kg (95% CI), Pilocarpine Test [2, 5]: 149 mg/kg and 149 (114-393) mg/kg
- Deaths ([2]; rats, 65 mg/kg, time 0.0 h): 0
- Deaths ([2]; rats, 130 mg/kg, time 0.5 h): 0
- duration of activity ([2]; stated after Table 3): active for prolonged periods of time
- rat overall mortality in ESE model [3]: without affecting the rat overall mortality
- effect in benzodiazepine-resistant ESE rat model ([3]; 1 h and 3 h after dosing, administered 30 min and 45 min after first motor seizure): acute suppressive effect
- SNL (ED50 mg/kg) (tactile allodynia [4]): 49 (9-61) mg/kg

Where “and” joins values, the source holds several entries; their conditions need not be identical. Equal values may be shown once.
